Source: ChEMBL document CHEMBL4364254 (J Med Chem, 2019)

Amino acid sequences for entries named in this document (tags omitted). A change or cut given only in a name is not applied to a line headed by its entry.
UniProt Q12809: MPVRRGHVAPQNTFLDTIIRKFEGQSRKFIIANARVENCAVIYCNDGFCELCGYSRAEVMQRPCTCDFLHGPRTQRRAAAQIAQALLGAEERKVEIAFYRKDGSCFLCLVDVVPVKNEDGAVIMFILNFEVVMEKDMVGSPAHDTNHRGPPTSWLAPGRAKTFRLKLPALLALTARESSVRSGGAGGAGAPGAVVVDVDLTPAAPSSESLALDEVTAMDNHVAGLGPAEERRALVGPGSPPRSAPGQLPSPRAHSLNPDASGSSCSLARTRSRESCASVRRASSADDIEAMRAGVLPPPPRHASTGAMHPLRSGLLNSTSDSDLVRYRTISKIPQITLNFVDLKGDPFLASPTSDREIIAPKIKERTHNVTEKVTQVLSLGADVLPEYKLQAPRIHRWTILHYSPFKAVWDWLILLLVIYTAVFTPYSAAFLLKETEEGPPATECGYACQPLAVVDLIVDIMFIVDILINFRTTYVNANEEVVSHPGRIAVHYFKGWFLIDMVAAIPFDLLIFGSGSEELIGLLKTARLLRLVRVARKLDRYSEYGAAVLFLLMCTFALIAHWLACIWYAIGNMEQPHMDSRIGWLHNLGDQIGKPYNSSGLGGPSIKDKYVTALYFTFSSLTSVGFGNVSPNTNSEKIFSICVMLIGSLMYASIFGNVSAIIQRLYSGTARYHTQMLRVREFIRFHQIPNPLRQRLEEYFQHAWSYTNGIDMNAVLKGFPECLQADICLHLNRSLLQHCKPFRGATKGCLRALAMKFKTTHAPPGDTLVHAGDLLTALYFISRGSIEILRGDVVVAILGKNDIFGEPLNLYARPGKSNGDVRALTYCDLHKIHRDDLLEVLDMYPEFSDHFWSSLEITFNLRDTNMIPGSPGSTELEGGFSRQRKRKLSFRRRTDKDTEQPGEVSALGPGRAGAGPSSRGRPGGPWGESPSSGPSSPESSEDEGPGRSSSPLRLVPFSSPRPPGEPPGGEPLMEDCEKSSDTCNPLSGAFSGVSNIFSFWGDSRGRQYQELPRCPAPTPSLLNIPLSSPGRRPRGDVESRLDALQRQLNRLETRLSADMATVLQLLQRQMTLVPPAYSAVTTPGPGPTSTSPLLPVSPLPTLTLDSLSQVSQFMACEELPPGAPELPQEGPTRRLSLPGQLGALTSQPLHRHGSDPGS
UniProt P34972, whole entry: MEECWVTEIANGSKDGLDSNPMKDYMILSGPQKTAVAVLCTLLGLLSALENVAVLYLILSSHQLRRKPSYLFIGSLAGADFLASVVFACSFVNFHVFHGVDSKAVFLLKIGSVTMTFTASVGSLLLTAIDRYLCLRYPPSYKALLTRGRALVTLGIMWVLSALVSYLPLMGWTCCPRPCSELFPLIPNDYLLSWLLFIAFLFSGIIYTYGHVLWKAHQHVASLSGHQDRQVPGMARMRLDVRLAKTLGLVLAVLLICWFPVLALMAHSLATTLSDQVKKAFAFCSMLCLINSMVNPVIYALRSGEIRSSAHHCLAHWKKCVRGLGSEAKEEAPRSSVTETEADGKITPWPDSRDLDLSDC
UniProt P21554, whole entry: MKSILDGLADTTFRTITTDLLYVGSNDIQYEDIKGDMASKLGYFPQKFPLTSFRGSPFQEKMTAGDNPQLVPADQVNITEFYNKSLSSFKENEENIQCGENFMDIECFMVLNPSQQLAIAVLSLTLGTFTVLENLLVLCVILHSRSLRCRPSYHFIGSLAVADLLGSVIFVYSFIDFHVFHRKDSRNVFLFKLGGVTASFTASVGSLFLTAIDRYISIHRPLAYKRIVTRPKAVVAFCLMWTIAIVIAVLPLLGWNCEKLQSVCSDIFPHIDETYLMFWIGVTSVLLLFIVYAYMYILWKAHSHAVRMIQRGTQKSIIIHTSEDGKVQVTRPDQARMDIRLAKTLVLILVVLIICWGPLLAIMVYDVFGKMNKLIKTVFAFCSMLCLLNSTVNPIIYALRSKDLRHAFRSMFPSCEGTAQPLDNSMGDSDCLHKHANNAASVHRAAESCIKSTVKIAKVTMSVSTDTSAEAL

Organism: Homo sapiens
Assay: Selectivity ratio of Ki for displacement of [3H]CP55940 from human CB2 receptor expressed in HEK293 cell membranes to Ki for displacement of [3H]CP55940 from human CB1 receptor expressed in HEK293 cell membranes
Details: not given
`CC1(NC(=O)NC2CCC(F)(F)CC2)CCN(c2ncnc3c2nc(-c2ccccc2Cl)n3-c2ccc(Cl)cc2)CC1` gave a Ratio Ki of over 588.

Target: T1, Voltage-gated inwardly rectifying potassium channel KCNH2 (Homo sapiens, UniProt Q12809)
Details: not given
In the case of `O=C(Nc1ccc(OC(F)F)nc1)NC1CCN(c2ncnc3c2nc(-c2ccccc2Cl)n3-c2ccc(Cl)cc2)CC1`, the Ki is reported as over 10000 nM.
Work on `O=C(Nc1ccc(F)cc1F)NC1CCN(c2ncnc3c2nc(-c2ccccc2Cl)n3-c2ccc(Cl)cc2)CC1` yielded a Ki of over 10000 nM.

Target: T2, Cannabinoid receptor 2 (Homo sapiens, UniProt P34972)
Assay: Displacement of [3H]WIN55212-2 from recombinant human CB2 receptor after 120 mins by scintillation counting analysis
Details: not given
In the case of `O=C(Nc1ccc(OC(F)F)nc1)NC1CCN(c2ncnc3c2nc(-c2ccccc2Cl)n3-c2ccc(Cl)cc2)CC1`, the EC50 is reported as over 10000 nM and the IC50 is reported as over 10000 nM.

Target: T3, Cannabinoid receptor 1 (Homo sapiens, UniProt P21554)
Assay: Displacement of [3H]CP55940 from human CB1 receptor expressed in HEK293 cell membranes
Details: not given
Work on `O=C(Nc1ccc(OC(F)F)nc1)NC1CCN(c2ncnc3c2nc(-c2ccccc2Cl)n3-c2ccc(Cl)cc2)CC1` yielded a Ki of 22 nM.
For `CC(C)CN(C)C(=O)NC1CCN(c2ncnc3c2nc(-c2ccccc2Cl)n3-c2ccc(Cl)cc2)CC1`, the Ki was 0.8 nM.
Compound `COCCN(C)C(=O)NC1CCN(c2ncnc3c2nc(-c2ccccc2Cl)n3-c2ccc(Cl)cc2)CC1` has a Ki of 0.26 nM.
Work on `CCCN(C)C(=O)NC1CCN(c2ncnc3c2nc(-c2ccccc2Cl)n3-c2ccc(Cl)cc2)CC1` yielded a Ki of 0.9 nM.
`O=C(NC1CCCC1)NC1CCN(c2ncnc3c2nc(-c2ccccc2Cl)n3-c2ccc(Cl)cc2)CC1` gave a Ki of 3 nM.
For `O=C(NCc1ccccc1F)NC1CCN(c2ncnc3c2nc(-c2ccccc2Cl)n3-c2ccc(Cl)cc2)CC1`, the Ki was 2.4 nM.
With `O=C(Nc1ccc(C(F)(F)F)nc1)NC1CCN(c2ncnc3c2nc(-c2ccccc2Cl)n3-c2ccc(Cl)cc2)CC1` the Ki was 51 nM.
Compound `O=C(NC1CCN(c2ncnc3c2nc(-c2ccccc2Cl)n3-c2ccc(Cl)cc2)CC1)NS(=O)(=O)c1ccccc1F` has a Ki of 380 nM.
Compound `O=C(NCC1CCCC1)NC1CCN(c2ncnc3c2nc(-c2ccccc2Cl)n3-c2ccc(Cl)cc2)CC1` has a Ki of 19 nM.

Target: T1, Voltage-gated inwardly rectifying potassium channel KCNH2
Assay: Displacement of [3H]dofetilide from recombinant human ERG after 60 mins by scintillation counting analysis
Details: not given
In the case of `O=C(Nc1ccc(OC(F)F)nc1)NC1CCN(c2ncnc3c2nc(-c2ccccc2Cl)n3-c2ccc(Cl)cc2)CC1`, the EC50 is reported as over 10000 nM and the IC50 is reported as over 10000 nM.

Target: T2, Cannabinoid receptor 2
Assay: Displacement of [3H]CP55940 from human CB2 receptor expressed in HEK293 cell membranes
Details: not given
Summary of the method: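 Competition binding against [3H]CP55940 in membranes from HEK cells overexpressing human CB1 or CB2. Ki values are derived from displacement, and the same membrane format is used for both receptors. Values are averages of three to six independent measurements.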
For `O=C(NCc1ccc(F)cc1)NC1CCN(c2ncnc3c2nc(-c2ccccc2Cl)n3-c2ccc(Cl)cc2)CC1`, the Ki was over 10000 nM.
Work on `O=C(Nc1ccc(OC(F)F)nc1)NC1CCN(c2ncnc3c2nc(-c2ccccc2Cl)n3-c2ccc(Cl)cc2)CC1` yielded a Ki of over 10000 nM.
`O=C(Nc1ccc(F)cc1F)NC1CCN(c2ncnc3c2nc(-c2ccccc2Cl)n3-c2ccc(Cl)cc2)CC1` gave a Ki of over 10000 nM.
Compound `O=C(Nc1ccccc1F)NC1CCN(c2ncnc3c2nc(-c2ccccc2Cl)n3-c2ccc(Cl)cc2)CC1` has a Ki of over 10000 nM.
Work on `O=C(Nc1ccc(C(F)(F)F)nc1)NC1CCN(c2ncnc3c2nc(-c2ccccc2Cl)n3-c2ccc(Cl)cc2)CC1` yielded a Ki of over 10000 nM.
Work on `O=C(Nc1ccc(F)cc1)NC1CCN(c2ncnc3c2nc(-c2ccccc2Cl)n3-c2ccc(Cl)cc2)CC1` yielded a Ki of 6500 nM.
For `O=C(Nc1ccccc1)NC1CCN(c2ncnc3c2nc(-c2ccccc2Cl)n3-c2ccc(Cl)cc2)CC1`, the Ki was over 10000 nM.

Tested on: not listed separately
Assay: Half life in human liver microsomes at 1 uM in presence of NADPH by chromatographic method
Assay type: ADME, Microsome
Details: not given
For `O=C(Nc1ccc(OC(F)F)nc1)NC1CCN(c2ncnc3c2nc(-c2ccccc2Cl)n3-c2ccc(Cl)cc2)CC1`, the half-life at 1 µM was 7.05 h.
`CC1(NC(=O)Nc2ccccc2F)CCN(c2ncnc3c2nc(-c2ccccc2Cl)n3-c2ccc(Cl)cc2)CC1` gave a half-life at 1 µM of 1.28 h.
With `CC1(NC(=O)NC2CCC(F)(F)CC2)CCN(c2ncnc3c2nc(-c2ccccc2Cl)n3-c2ccc(Cl)cc2)CC1` the half-life at 1 µM was 4.65 h.
Compound `CC1(NC(=O)Nc2ccc(OC(F)F)nc2)CCN(c2ncnc3c2nc(-c2ccccc2Cl)n3-c2ccc(Cl)cc2)CC1` has a half-life at 1 µM of 0.85 h.
Work on `CC1(NC(=O)NS(=O)(=O)c2ccccc2F)CCN(c2ncnc3c2nc(-c2ccccc2Cl)n3-c2ccc(Cl)cc2)CC1` yielded a half-life at 1 µM of 1.4 h.
In the case of `O=C(Nc1ccccc1)NC1CCN(c2ncnc3c2nc(-c2ccccc2Cl)n3-c2ccc(Cl)cc2)CC1`, the half-life at 1 µM is reported as 1.92 h.

Target: T3, Cannabinoid receptor 1
Assay: Inverse agonist activity at human CB1 receptor expressed in CHOK1 cells co-expressing Galphaq16 assessed as reduction in CP55940-induced intracellular calcium mobilization by calcein-4 AM dye based fluorescence assay
Assay type: functional, cell-based
Details: not given
Compound `O=C(Nc1ccc(C(F)(F)F)nc1)NC1CCN(c2ncnc3c2nc(-c2ccccc2Cl)n3-c2ccc(Cl)cc2)CC1` has a Ke of 37 nM.
Work on `CC1(NC(=O)NS(=O)(=O)c2ccccc2F)CCN(c2ncnc3c2nc(-c2ccccc2Cl)n3-c2ccc(Cl)cc2)CC1` yielded a Ke of 7 nM.
Work on `O=C(NC1CCN(c2ncnc3c2nc(-c2ccccc2Cl)n3-c2ccc(Cl)cc2)CC1)NC1CCC(F)(F)CC1` yielded a Ke of 79 nM.
With `O=C(Nc1ccccc1)NC1CCN(c2ncnc3c2nc(-c2ccccc2Cl)n3-c2ccc(Cl)cc2)CC1` the Ke was 30 nM.

Tested on: not listed separately
Assay: Clearance in human liver microsomes at 1 uM incubated for 120 mins in presence of NADPH by chromatographic method
Assay type: ADME, Microsome
Details: 2 h
`O=C(Nc1ccc(OC(F)F)nc1)NC1CCN(c2ncnc3c2nc(-c2ccccc2Cl)n3-c2ccc(Cl)cc2)CC1` gave a CLH of 3 µL/min/mg.
`CC1(NC(=O)Nc2ccccc2F)CCN(c2ncnc3c2nc(-c2ccccc2Cl)n3-c2ccc(Cl)cc2)CC1` gave a CLH of 16 µL/min/mg.
In the case of `CC1(NC(=O)NC2CCC(F)(F)CC2)CCN(c2ncnc3c2nc(-c2ccccc2Cl)n3-c2ccc(Cl)cc2)CC1`, the CLH is reported as 5 µL/min/mg.
For `CC1(NC(=O)Nc2ccc(OC(F)F)nc2)CCN(c2ncnc3c2nc(-c2ccccc2Cl)n3-c2ccc(Cl)cc2)CC1`, the CLH was 24 µL/min/mg.
`CC1(NC(=O)NS(=O)(=O)c2ccccc2F)CCN(c2ncnc3c2nc(-c2ccccc2Cl)n3-c2ccc(Cl)cc2)CC1` gave a CLH of 15 µL/min/mg.
For `O=C(Nc1ccccc1)NC1CCN(c2ncnc3c2nc(-c2ccccc2Cl)n3-c2ccc(Cl)cc2)CC1`, the CLH was 11 µL/min/mg.
